Test system: Colon Adenocarcinoma C51
Assay: CPT-11, cisplatin and combination, three-arm study in mice bearing colon adenocarcinoma C51
Method: This efficacy may be quantified, for example, by the log10 cell kill, which is determined by the following formula: […]
An agent is considered to be active if log10 cell kill is greater than or equal to 0.7. An agent is considered to be very active if the log10 cell kill is greater than 2.8.
In the first arm, four dose levels of CPT-11 were given orally on days four through seven, twice daily. […] This third arm illustrated an example of semi-simultaneous administration.
The LD10 for the single agent was obtained by plotting the toxicity of that agent and the dosage in mg/kg as a log probit graph. Subsequently, the CTI LD10 was obtained by plotting as a log probit graph the observed lethality and the corresponding CTI calculated as the sum of the fraction of the LD10 of each single agent.

N.N.[Cl][Pt][Cl] [Cisplatin, cis-diaminedichloroplatinum]
Comments (Cisplatin i.v. 1.9 mg/kg/adm, days 4, 7): Active
Comments (Cisplatin i.v. 3.1 mg/kg/adm, days 4, 7): HNTD Highly Active
Comments (mouse, in vivo, iv, 8 mg/kg): Toxic

From patent US6545010B2, “Composition comprising camptothecin or a camptothecin derivative and a platin derivative for the treatment of cancer” (priority 2000, dated 2003)
